Reference: publication PMC8301998, “Discovery of Novel Allosteric Modulators Targeting an Extra-Helical Binding Site of GLP-1R Using Structure- and Ligand-Based Virtual Screening” (Biomolecules, 2021)

The chains behind the UniProt entries cited, without tags or fusion partners. Residues count along the entry.
UniProt P43220, 24-463: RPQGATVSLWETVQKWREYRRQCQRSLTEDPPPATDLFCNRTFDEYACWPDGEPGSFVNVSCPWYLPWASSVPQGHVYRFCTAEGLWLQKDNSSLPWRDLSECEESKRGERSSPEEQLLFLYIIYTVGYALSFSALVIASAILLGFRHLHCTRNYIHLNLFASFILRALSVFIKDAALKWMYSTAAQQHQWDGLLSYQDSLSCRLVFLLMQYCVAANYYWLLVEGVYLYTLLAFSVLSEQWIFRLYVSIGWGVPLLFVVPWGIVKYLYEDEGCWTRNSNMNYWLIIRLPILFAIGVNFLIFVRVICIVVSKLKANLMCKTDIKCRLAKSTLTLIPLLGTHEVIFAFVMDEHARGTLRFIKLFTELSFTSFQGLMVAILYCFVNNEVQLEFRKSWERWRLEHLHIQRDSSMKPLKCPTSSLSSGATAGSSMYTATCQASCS

Tests used:
[1] = target: T1, GLP-1R (Homo sapiens, UniProt P43220); assay: cell-based
[2] = target: T1, GLP-1R; assay: cell-based; remark: listed apart in the source
[3] = target: T1, GLP-1R; conditions: GLP-1R expressing CHO-K1 cells

SMILES | EC50 [1] | IC50 [2] | Modulation of GLP-1-elicited cAMP accumulation / GLP-1 potency (in words) [3]
O=C(Cn1c(COc2ccccc2)nc2ccccc21)Nc1ccc(Cc2nnn[nH]2)cc1 [C10] | 501 µM | 45.7 µM | positively modulated GLP-1 potency
O=C(CSc1nnc[nH]1)Nc1sc2c(c1C(=O)NCc1ccccc1)CCCC2 [C31] | 10 µM | 1.29 µM | positively modulated GLP-1 potency
CCOc1ccc(S(=O)(=O)Nc2ccccc2C(=O)OCC(=O)Nc2cc(C)on2)cc1 [C13] | 15.8 µM | 1.48 µM | positively modulated GLP-1 potency
COc1ccccc1NS(=O)(=O)c1cc(NC(=O)c2ccc(=O)n(C)n2)ccc1N1CCCC1 [C22] | 0.501 µM | 0.631 µM | positively modulated GLP-1 potency
COc1ccc(NC(=O)c2n[nH]c3ccc([N+](=O)[O-])cc23)cc1NS(=O)(=O)c1ccc(F)cc1 [C26] | 3.98 µM | 1.41 µM | positively modulated GLP-1 potency
